Results from PubChem BioAssay AID798 (PCMD, 2007).
The list shows a part of the results, in another mix than the full data. Activity calls are given as the source filed them.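 The calls were made as follows: active = inhibition of at least 40%; inactive = inhibition below 40%.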

Protein sequences, listed by entry. Tags and fused reporters are not part of them.
UniProt P03951, whole entry, looked up: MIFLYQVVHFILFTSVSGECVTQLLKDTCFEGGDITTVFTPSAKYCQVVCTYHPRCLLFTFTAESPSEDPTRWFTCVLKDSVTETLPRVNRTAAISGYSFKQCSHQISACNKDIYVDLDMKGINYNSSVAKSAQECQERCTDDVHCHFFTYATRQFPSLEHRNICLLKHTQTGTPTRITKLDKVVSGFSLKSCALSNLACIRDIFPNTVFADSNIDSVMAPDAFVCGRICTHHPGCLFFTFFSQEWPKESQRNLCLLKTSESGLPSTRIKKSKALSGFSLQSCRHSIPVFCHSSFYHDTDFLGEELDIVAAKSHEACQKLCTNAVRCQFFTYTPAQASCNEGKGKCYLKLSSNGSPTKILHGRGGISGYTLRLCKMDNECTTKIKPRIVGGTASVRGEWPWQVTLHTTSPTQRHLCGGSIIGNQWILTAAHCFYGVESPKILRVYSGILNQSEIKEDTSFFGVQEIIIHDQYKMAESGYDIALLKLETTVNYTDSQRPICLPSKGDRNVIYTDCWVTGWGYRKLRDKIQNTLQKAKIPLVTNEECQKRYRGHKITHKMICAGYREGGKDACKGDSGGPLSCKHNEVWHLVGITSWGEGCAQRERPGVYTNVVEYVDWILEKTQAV

The compounds below were run against Coagulation factor XI (Homo sapiens) (UniProt P03951) (assay: human FXIa protease inhibitors, primary screen, biochemical, 1536-well (AID 798;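 also: fluorescence of freed AMC excited at 355 nm; 0% = enzyme without compound and 100% = no enzyme blank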)). Details: purified FXIa, Boc-Glu-Ala-Arg-AMC fluorogenic substrate; at 5 µM; hits give high values.
With `Cc1cc(SC(NC(=O)c2ccccc2)C(Cl)(Cl)Cl)nc(C(C)C)n1` (centres undefined) the inhibition was inactive: 10.1%. In the case of `CCOC(=O)Nc1cccc([As](=O)(O)O)c1`, the inhibition is reported as inactive: -1.61%. `O=[N+]([O-])c1ccc(Nc2ccc(Oc3ccc([N+](=O)[O-])cc3[N+](=O)[O-])cc2)c([N+](=O)[O-])c1` was tested, and the inhibition was inactive: 6.85%. In the case of `Cc1cc(SC(NC=O)C(Cl)(Cl)Cl)ncn1` (centres undefined), the inhibition is reported as inactive: 2.66%. With `O=P(Nc1ccccn1)(c1cccc2ccccc12)c1cccc2ccccc12` the inhibition was inactive: -5.83%. `COP1(=S)c2c(C)nn(CCC#N)c2N=C(c2ccc(F)cc2)N1C` (centres undefined) was tested, and the inhibition was inactive: -0.89%. In the case of `O=C(COc1ccccc1)OC1CN2CCC1CC2` (centres undefined), the inhibition is reported as inactive: -1.29%. `CCOC(=O)c1ccc(NC(=O)C(C)(CCl)SC)cc1` (centres undefined) was tested, and the inhibition was inactive: 1.21%. `CCC(C)N(CC(C)C)C(=S)SC(NC(C)=O)C(Cl)(Cl)Cl` (centres undefined) was tested, and the inhibition was inactive: 12.6%. In the case of `O=C(OC1CN2CCC1CC2)C12CC3CC(CC(C3)C1)C2` (centres undefined), the inhibition is reported as inactive: -8.42%. In the case of `Cc1cc(=O)[nH]c(N[N+](=O)[O-])n1`, the inhibition is reported as inactive: -9.86%. For `Cc1c2c(nc3ccccc13)SC(C(Cl)Cl)C2` (centres undefined), the inhibition was inactive: 6.17%. `COc1ccc2nc(NP(=O)(c3ccccc3)c3ccccc3)sc2c1` was tested, and the inhibition was inactive: 1.15%. With `COc1cc(I)ccc1[As](=O)(O)O` the inhibition was inactive: -5.68%. With `COc1ccc(N/C(=N/P(=O)(N2CCOCC2)N2CCOCC2)N2CCOCC2)cc1` the inhibition was inactive: 3.19%. `O=[As](O)(c1ccc(O)cc1)c1ccccc1O` was tested, and the inhibition was inactive: -5.5%. In the case of `C[As](=O)(O)c1cccc(C(=O)O)c1`, the inhibition is reported as inactive: 4.65%. For `Cc1ccc2nc3c(c(C)c2c1)CC(C(Cl)Cl)S3` (centres undefined), the inhibition was inactive: 1.71%. For `Cc1ccc(OP(=O)(Nc2ccc([N+](=O)[O-])cn2)Oc2ccc(C)cc2)cc1`, the inhibition was inactive: -22.1%. For `CC(C)c1ccc(OP(=O)(Nc2ccccn2)Oc2ccccc2F)cc1` (centres undefined), the inhibition was inactive: -0.15%. `ClCCSc1nnc(-c2cccnc2)o1` was tested, and the inhibition was inactive: 7.94%. With `CC(C)NC(=O)NP(=O)(Oc1ccccc1)Oc1ccccc1` the inhibition was inactive: -2.23%. For `CCN(CC)C(=S)SC(NC=O)C(Cl)(Cl)Cl` (centres undefined), the inhibition was inactive: -1.49%. With `O=[N+]([O-])c1cc([N+](=O)[O-])c(-c2ccn[nH]2)s1` the inhibition was inactive: 4.22%.
